From US11623919B2, “Heterocyclic P2X7 antagonists” (AXXAM S.P.A., priority 2017, dated 2023)

By UniProt entry, the sequences of proteins in these tests, tags left out.
UniProt Q99572, whole entry: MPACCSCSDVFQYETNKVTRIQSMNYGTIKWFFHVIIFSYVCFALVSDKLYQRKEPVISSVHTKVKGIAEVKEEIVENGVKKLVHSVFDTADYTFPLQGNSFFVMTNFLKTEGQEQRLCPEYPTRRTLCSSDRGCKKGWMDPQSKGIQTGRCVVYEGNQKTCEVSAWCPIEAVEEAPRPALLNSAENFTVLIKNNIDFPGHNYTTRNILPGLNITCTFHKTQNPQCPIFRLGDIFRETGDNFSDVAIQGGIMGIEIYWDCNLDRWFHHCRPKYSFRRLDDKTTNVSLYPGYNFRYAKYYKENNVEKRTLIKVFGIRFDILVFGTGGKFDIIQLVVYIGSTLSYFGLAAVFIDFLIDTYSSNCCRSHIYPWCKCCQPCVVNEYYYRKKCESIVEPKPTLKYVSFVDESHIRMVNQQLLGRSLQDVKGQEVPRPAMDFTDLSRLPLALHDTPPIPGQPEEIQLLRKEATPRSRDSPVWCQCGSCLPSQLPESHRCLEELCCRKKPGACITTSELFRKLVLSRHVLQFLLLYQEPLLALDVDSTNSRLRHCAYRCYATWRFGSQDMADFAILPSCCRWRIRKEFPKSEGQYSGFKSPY
UniProt Q9Z1M0, whole entry: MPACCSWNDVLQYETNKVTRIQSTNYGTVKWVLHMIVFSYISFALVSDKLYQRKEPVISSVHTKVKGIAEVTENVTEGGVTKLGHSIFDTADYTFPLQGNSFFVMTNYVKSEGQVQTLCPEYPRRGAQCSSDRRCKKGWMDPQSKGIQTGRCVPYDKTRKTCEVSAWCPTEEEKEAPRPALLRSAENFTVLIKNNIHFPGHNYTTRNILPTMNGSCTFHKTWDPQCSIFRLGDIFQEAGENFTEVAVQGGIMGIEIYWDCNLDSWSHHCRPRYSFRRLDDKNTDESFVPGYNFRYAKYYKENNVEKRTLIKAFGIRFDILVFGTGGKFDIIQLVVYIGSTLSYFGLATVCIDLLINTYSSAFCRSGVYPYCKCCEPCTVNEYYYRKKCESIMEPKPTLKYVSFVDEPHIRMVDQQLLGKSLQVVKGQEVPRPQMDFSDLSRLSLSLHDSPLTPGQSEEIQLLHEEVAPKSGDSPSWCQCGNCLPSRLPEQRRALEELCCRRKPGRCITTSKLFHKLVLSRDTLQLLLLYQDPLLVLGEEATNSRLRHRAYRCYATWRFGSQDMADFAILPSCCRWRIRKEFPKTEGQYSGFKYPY
UniProt Q64663, whole entry: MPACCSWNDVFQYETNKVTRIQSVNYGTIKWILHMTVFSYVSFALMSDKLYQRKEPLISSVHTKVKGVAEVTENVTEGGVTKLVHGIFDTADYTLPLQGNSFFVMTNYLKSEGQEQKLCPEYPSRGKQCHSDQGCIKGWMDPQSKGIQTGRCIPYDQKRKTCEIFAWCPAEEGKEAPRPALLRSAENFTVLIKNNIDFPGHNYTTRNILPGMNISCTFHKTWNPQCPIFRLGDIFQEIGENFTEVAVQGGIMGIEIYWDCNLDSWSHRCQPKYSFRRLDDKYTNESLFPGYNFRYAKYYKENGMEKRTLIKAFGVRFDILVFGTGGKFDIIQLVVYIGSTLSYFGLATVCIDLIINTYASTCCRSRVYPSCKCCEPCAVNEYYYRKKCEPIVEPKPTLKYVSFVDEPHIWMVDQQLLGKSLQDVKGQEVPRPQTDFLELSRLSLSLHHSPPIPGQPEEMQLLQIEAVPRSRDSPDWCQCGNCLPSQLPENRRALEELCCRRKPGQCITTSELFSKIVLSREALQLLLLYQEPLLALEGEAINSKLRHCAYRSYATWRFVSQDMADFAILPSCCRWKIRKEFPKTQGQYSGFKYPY

Key:
Assay in all cases: Screen Quest Fluo-8 No Wash Calcium Assay (Bz-ATP evoked Ca2+ influx, FLIPR)
P2X7 receptor [1] = molecular target: P2X7 receptor (Homo sapiens, UniProt Q99572); conditions: read-out: hP2X7 (IC50; nM); hP2X7; HEK-293 cells stably transfected with P2X7 receptor, Bz-ATP at EC80, Fluo-8 NW; potency ranges A-D
P2X7 receptor [2] = molecular target: P2X7 receptor (Mus musculus, UniProt Q9Z1M0); conditions: read-out: mP2X7 (IC50; nM); mP2X7; HEK-293 cells stably transfected with P2X7 receptor, Bz-ATP at EC80, Fluo-8 NW; potency ranges A-D
P2X7 receptor [3] = molecular target: P2X7 receptor (Rattus norvegicus, UniProt Q64663); conditions: read-out: rP2X7 (IC50; nM); rP2X7; HEK-293 cells stably transfected with P2X7 receptor, Bz-ATP at EC80, Fluo-8 NW; potency ranges A-D

Measured: IC50

O=c1snc(CC2CCC(F)(F)CC2)n1Cc1ccc(F)cc1
1000 to 10000 nM: P2X7 receptor [1] | P2X7 receptor [2] | P2X7 receptor [3]
